The results in this text go back to article PMC7101356, “Cross-site and cross-platform variability of automated patch clamp assessments of drug effects on human cardiac currents in recombinant cells” (Scientific Reports, 2020).

Amino acid sequences for entries named in this document (tags omitted). A change or cut given only in a name is not applied to a line headed by its entry.
UniProt Q12809: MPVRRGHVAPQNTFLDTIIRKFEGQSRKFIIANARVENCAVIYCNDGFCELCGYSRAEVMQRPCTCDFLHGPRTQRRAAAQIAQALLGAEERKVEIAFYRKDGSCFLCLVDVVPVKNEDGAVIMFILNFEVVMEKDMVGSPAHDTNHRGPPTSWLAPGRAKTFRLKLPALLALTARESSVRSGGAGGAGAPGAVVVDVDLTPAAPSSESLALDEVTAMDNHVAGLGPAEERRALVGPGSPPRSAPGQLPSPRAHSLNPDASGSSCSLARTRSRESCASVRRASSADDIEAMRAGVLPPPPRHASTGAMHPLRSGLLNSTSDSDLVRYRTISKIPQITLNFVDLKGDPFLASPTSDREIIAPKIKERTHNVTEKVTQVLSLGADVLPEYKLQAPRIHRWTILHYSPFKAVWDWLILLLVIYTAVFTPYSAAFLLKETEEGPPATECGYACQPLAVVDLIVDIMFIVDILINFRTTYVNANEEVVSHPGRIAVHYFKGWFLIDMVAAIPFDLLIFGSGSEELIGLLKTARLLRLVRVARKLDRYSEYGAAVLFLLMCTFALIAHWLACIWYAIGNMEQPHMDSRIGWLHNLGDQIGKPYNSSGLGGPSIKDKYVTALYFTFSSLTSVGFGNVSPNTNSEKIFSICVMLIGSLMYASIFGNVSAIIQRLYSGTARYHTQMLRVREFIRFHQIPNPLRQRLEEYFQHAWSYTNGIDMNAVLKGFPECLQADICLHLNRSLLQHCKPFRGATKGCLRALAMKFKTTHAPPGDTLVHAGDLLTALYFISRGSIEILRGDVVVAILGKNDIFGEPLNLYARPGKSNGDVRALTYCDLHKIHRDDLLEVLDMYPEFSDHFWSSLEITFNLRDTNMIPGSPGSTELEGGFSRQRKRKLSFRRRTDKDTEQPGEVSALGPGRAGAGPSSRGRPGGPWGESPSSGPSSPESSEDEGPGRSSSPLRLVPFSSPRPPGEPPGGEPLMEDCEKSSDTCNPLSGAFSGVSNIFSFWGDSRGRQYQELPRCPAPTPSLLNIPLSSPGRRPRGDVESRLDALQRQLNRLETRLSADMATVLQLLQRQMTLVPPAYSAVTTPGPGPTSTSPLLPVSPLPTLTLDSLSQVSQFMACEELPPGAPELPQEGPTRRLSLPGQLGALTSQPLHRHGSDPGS

For assay [1], the target named is T1, hERG (Homo sapiens, UniProt Q12809). Put plainly: cell-based.
Assay [2] addresses T1, hERG. As to the kind of experiment: Automated patch clamp, hERG current block, Milnes protocol (site s06).

As to `Cc1nccn1CC1CCc2c(c3ccccc3n2C)C1=O` (centres unmarked) [ond, ondansetron], the IC50 was 1820 nM at hERG [1] (hERG K+ current log IC50, s01_p1, CHO, 23 °C); 2570 nM on hERG [1] (hERG K+ current log IC50, s02_p2, HEK293, 22–26 °C); 537 nM against hERG [1] (hERG K+ current log IC50, s03_p2, HEK293, room temperature); 1450 nM against hERG [1] (hERG K+ current log IC50, s05_p4, HEK293, 22–24 °C); 1000 nM on hERG [1] (hERG K+ current log IC50, s15_p1, HEK293, 22–23 °C); 1910 nM at hERG [1] (hERG K+ current log IC50, s16_p3, HEK293, room temperature). The IC50 at hERG [1] (hERG K+ current log IC50, s18_p1, CHO, 35 °C) is 2240 nM; at hERG [1] (hERG K+ current log IC50, s19_p3, CHO, room temperature) it was 1260 nM; against hERG [1] (log IC50, hERG K+ current inhibition, […]) it was 1350 nM; against hERG [1] (log IC50, hERG K+ current inhibition, site_platform s10_p3), 3980 nM; against hERG [1] (log IC50, hERG K+ current inhibition, site_platform s12_p2), 1150 nM; at hERG [1] (log IC50, hERG K+ current inhibition, site_platform s13_p2), 1550 nM. Moreover, the IC50 is 309 nM at hERG [1] (log IC50, hERG K+ current inhibition, site_platform s14_p1) and 891 nM against hERG [2].
